Experiment [1] in a line: Selectivity ratio of IC50 for FLT3 to IC50 for human recombinant C-met.
Experiment [2] in a line: Selectivity ratio of IC50 for TrkA to IC50 for human recombinant C-met.

Structures are written as SMILES.

On to `O=C(Nc1ccc(F)cc1F)c1cccnc1Nc1ccc(Oc2ccnc3[nH]ccc23)c(F)c1`, for which the Ratio IC50 was found to be 17 in experiment [1] and 50 in experiment [2].

Source of the values: ChEMBL document CHEMBL1158562, “Design, synthesis and structure-activity relationships of novel biarylamine-based Met kinase inhibitors” (Bioorg Med Chem Lett, 2010).
